This is an account of results in patent US8501732B2, “Aminomethyl quinolone compounds” (Hoffmann-La Roche Inc., priority 2011, dated 2013).

The chains behind the UniProt entries cited, without tags or fusion partners. Where a name states a change or a piece, a line headed by the entry shows the natural chain unless it says otherwise.
UniProt P45983: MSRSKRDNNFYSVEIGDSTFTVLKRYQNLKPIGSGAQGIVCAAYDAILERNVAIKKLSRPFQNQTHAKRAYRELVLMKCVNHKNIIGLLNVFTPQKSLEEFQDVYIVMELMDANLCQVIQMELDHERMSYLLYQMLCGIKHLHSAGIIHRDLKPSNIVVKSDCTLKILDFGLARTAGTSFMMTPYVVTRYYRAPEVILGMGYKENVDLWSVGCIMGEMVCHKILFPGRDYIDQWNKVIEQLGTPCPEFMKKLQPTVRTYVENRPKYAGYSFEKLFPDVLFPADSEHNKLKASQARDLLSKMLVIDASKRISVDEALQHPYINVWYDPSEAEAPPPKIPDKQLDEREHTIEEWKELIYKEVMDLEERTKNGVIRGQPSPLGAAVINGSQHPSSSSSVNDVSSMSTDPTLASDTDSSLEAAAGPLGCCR

The target in one assay is JNK1 (Homo sapiens (Human), UniProt P45983). Kind of assay: In Vitro JNK1 Assay (TR-FRET, phosphorylation of GST-c-Jun). Format: biochemical. The method, then: Phosphorylation of GST-c-Jun protein (amino acid residues 1-79) was measured as JNK1 activity. […] The reaction buffer contained 50 mM HEPES, pH […], 1 mM DTT, 0.1 mM Na3VO4 and 0.2 mg/mL BSA. After 30 min. incubation at room temperature, the reaction was terminated by adding buffer containing 8 mM EDTA and a polyclonal anti-phospho-c-Jun antibody (Cell Signaling #9261L), followed by an additional incubation of 30 min. at room temperature. […] Time-resolved Fluorescence Resonance Energy Transfer (TR-FRET) signals were measured 1 hr. later on the EnVision reader (Perkin Elmer). Compound potency was assessed at 10 serially diluted concentrations. Percentage of inhibition at each concentration was determined to generate an IC50 value for each compound.

Assay [1] deals with phospho(Ser63)-c-jun in HK-2 cells. As to the kind of experiment: Cell-Based Assay for JNK Inhibitors (in-cell ELISA, phospho(Ser63)-c-jun after TNFα). The conditions noted are these: Homo sapiens, HK-2, read-out: HK-2, EC50 (μM). The method, then: Cell-Based Assay for JNK Inhibitors
The cell-based assay employed the in-cell ELISA method to determine the ability of compounds to prevent the generation of phospho(Ser63)-c-jun in HK-2 cells (human proximal tubule cells) in response to stimulation with tumor necrosis factor α (TNFα). In brief, for quantification of phospho(Ser63)-c-jun, the cells (in 96-well format) were fixed and permeablized then incubated sequentially with a rabbit anti-phospho-c-jun First Antibody specific for the presence of the phospho-Ser63 epitope and a donkey anti-rabbit IgG Second Antibody linked to horseradish peroxidase (HRP) for colorimetric quantitation of binding. […] Blank wells received no TNFα stimulation or compound. Additional Control wells received TNFα stimulation, but no compound.
Stock cultures of HK-2 cells (ATCC, Manassas, Va.) were grown under a 5% CO2/[…] atmosphere at 37 degrees C. in Keratinocyte-SFM medium (KSFM, Invitrogen, Grand Island, N.Y.) containing 5 μg/L epidermal growth factor and 5 mg/L bovine pituitary extract (both supplied with the medium), additionally supplemented with 10% (v/v) fetal calf serum (FCS; Invitrogen, Grand Island, N.Y.) and 1% (v/v) antibiotic-antimycotic (ABAM: Sigma, St. Louis, Mo.). […] Absorbance was determined at a 450 nm wavelength using a spectrophotometer (Molecular Devices SpectraMax 250).

For orientation: IC50 means the concentration needed to halve the response being measured. Read a high IC50 as a need for much substance. The term EC50 denotes the concentration at which the effect is half-maximal.

On to `COC(=O)c1c(CNC(=O)c2ccc(F)c(F)c2)c(=O)c2ccc(Cl)cc2n1-c1ccccc1` [Example I-137, 7-Chloro-3-[(3,4-difluoro-benzoylamino)-methyl]-4-oxo-1-phenyl-1,4-dihydro-quinoline-2-carboxylic acid methyl ester], for which the IC50 against JNK1 was 12 nM. The EC50 in assay [1] came out at 10 µM.
